Key:
Assay in all cases: Kinase profiling in a biochemical assay panel (mobility shift assays and ELISA), %-inhibition at 1 μM; selectivity entropy
[1] = target: panel of more than 300 wild-type and mutant kinases (313 kinase panel) (Homo sapiens, UniProt O95819)
[2] = target: panel of more than 300 wild-type and mutant kinases (313 kinase panel) (Homo sapiens, UniProt P07947, T348I)
[3] = target: panel of more than 300 wild-type and mutant kinases (313 kinase panel) (Homo sapiens, UniProt P19784)
[4] = target: panel of more than 300 wild-type and mutant kinases (313 kinase panel) (Homo sapiens, UniProt Q9UPE1)
[5] = target: panel of more than 300 wild-type and mutant kinases (313 kinase panel) (Homo sapiens, UniProt P16234); settings: 1 µM
[6] = target: panel of more than 300 wild-type and mutant kinases (313 kinase panel) (Homo sapiens, UniProt P22607, K650E); settings: 1 µM
[7] = target: panel of more than 300 wild-type and mutant kinases (313 kinase panel) (Homo sapiens, UniProt P22694); settings: 1 µM
[8] = target: panel of more than 300 wild-type and mutant kinases (313 kinase panel) (Homo sapiens, UniProt P24723); settings: 1 µM
[9] = target: panel of more than 300 wild-type and mutant kinases (313 kinase panel) (Homo sapiens, UniProt P30291); settings: 1 µM
[10] = target: panel of more than 300 wild-type and mutant kinases (313 kinase panel) (Homo sapiens, UniProt P36894)
[11] = target: panel of more than 300 wild-type and mutant kinases (313 kinase panel) (Homo sapiens, UniProt P50613); settings: 1 µM
[12] = target: panel of more than 300 wild-type and mutant kinases (313 kinase panel) (Homo sapiens, UniProt P53779); settings: 1 µM
[13] = target: panel of more than 300 wild-type and mutant kinases (313 kinase panel) (Homo sapiens, UniProt Q13237); settings: 1 µM
[14] = target: panel of more than 300 wild-type and mutant kinases (313 kinase panel) (Homo sapiens, UniProt Q15119)
[15] = target: panel of more than 300 wild-type and mutant kinases (313 kinase panel) (Homo sapiens, UniProt Q16620); settings: 1 µM
[16] = target: panel of more than 300 wild-type and mutant kinases (313 kinase panel) (Homo sapiens, UniProt Q16644)
[17] = target: panel of more than 300 wild-type and mutant kinases (313 kinase panel) (Homo sapiens, UniProt Q8IW41); settings: 1 µM
[18] = target: panel of more than 300 wild-type and mutant kinases (313 kinase panel) (Homo sapiens, UniProt Q8TDX7); settings: 1 µM
[19] = target: panel of more than 300 wild-type and mutant kinases (313 kinase panel) (Homo sapiens, UniProt Q9H0K1); settings: 1 µM
[20] = target: panel of more than 300 wild-type and mutant kinases (313 kinase panel) (Homo sapiens, UniProt Q9NZJ5)
[21] = target: panel of more than 300 wild-type and mutant kinases (313 kinase panel) (Homo sapiens, UniProt Q9UQB9); settings: 1 µM
[22] = target: panel of more than 300 wild-type and mutant kinases (313 kinase panel) (Homo sapiens, UniProt Q9Y3S1)

SMILES | %-inhibition of PDGFRα [5] [%] | %-inhibition of FGFR3(K650E) [6] [%] | %-inhibition of PKACβ [7] [%] | %-inhibition of PKCη [8] [%] | %-inhibition of WEE1 [9] [%] | %-inhibition, BMPR1A [10] [%] | %-inhibition, CDK7/CycH/MAT1 [11] [%] | %-inhibition of JNK3 [12] [%] | %-inhibition, CGK2 [13] [%] | %-inhibition of TRKB [15] [%] | %-inhibition of MAPKAPK5 [17] [%] | %-inhibition of NEK7 [18] [%] | %-inhibition of QIK [19] [%] | %-inhibition, AurC [21] [%] | other results
CNC(=O)c1ccccc1Sc1ccc2c(/C=C/c3ccccn3)n[nH]c2c1 [axitinib] |  |  |  |  |  |  |  |  |  |  |  |  |  |  | %-inhibition of HGK ([1]; kinase HGK, compound at 1 μM): 75%; %-inhibition of YES(T348I) ([2]; kinase YES(T348I), compound at 1 μM): 91%; %-inhibition, CK2α2/β ([3]; kinase CK2α2/β, 1 μM compound): -7.47%; %-inhibition of MSSK1 ([4]; kinase MSSK1, 1 μM): 6%
COc1cc2ncnc(Nc3ccc(F)c(Cl)c3)c2cc1OCCCN1CCOCC1 [gefitinib] | 54 | 28 | -2.6 | 5.46 | 21 | 14 | 5 | 28 | 9.48 | -4.75 | 3 | -9 | 64 | 13 | %-inhibition of PDHK2 ([14]; kinase PDHK2, 1 μM): -2%; %-inhibition of MAPKAPK3 ([16]; kinase MAPKAPK3, compound at 1 μM): -0.532%; %-inhibition of PEK ([20]; kinase PEK, 1 μM): 0.579%; %-inhibition of WNK2 ([22]; kinase WNK2, compound at 1 μM): -6.43%
C[C@@H]1CCN(C(=O)CC#N)C[C@@H]1N(C)c1ncnc2[nH]ccc12 [tofacitinib] | 24 | 11 | 8 | -12 | -0.0711 | -1.57 | -6.46 | -2 | 4.67 | 12 | -7 | -1.23 | 10 | -4 | %-inhibition of HGK ([1]; 1 µM): -2.79%; %-inhibition of YES(T348I) ([2]; 1 µM): 11%; %-inhibition, CK2α2/β ([3]; 1 µM): -7%; %-inhibition of PDHK2 ([14]; 1 µM): -2.2%; %-inhibition of MAPKAPK3 ([16]; 1 µM): -7.59%; %-inhibition of PEK ([20]; 1 µM): 2.48%; %-inhibition of MSSK1 ([4]; 1 µM): -6%; %-inhibition of WNK2 ([22]; 1 µM): -5%

Source: paper PMC3961306, “Comparison of the Cancer Gene Targeting and Biochemical Selectivities of All Targeted Kinase Inhibitors Approved for Clinical Use” (PLoS ONE, 2014)
